One compound from patent EP4834883A1, “HNRNPA2B1 AGONIST COMPOUND AND USE THEREOF IN TUMOR PREVENTION AND TREATMENT” (dated 2026) can be followed below.

One test relates to hnRNPA2B1. As to the kind of experiment: Nuclear export (subcellular localization) of hnRNPA2B1 by immunofluorescence in A549 lung cancer cells. Particulars: 20 µM, 30 minutes, immunofluorescence (Figure 1). As to the method: (§1) A549 lung cancer cells (cell density: 1 × 10^5 cells per well) were stimulated with test compound E (prepared as in Example I.5, dissolved in physiological saline) at a concentration of 20 µM for 30 minutes. The subcellular localization of hnRNPA2B1 was detected by immunofluorescence, and the activation of TBK1 and IRF3 was detected by SDS-PAGE electrophoresis and immunoblotting.

The test system of a further test is TBK1 and IRF3. Nature of the test: Activation of TBK1 and IRF3 by SDS-PAGE electrophoresis and immunoblotting in A549 lung cancer cells. Particulars: 20 µM, 30 minutes, immunoblotting (Figure 2). How it is done: as §1
(In general: Immunoblotting shows a protein as a band on a membrane.)

For the next test, the system named is IFN-β. As to the kind of experiment: Type I interferon induction in tumor cells, IFN-β protein levels in supernatant by ELISA. Particulars: A549, HepG2, LLC, B16F10 cells; 20 and 40 µM; supernatants at 18 and 24 hours; ELISA (Figure 3). As to the method:
A549 (non-small cell lung cancer), HepG2 (hepatocellular carcinoma), LLC (Lewis lung carcinoma), and B16F10 (melanoma) tumor cells (cell density: 1 × 10^4 cells per well) were stimulated with test compound E at concentrations of 20 and 40 µM. Cell culture supernatants were collected at 18 and 24 hours post-stimulation, and IFN-β protein levels were detected by ELISA.
(An ELISA detects its analyte on a solid surface through an enzyme-linked reagent.)

The test system of test [1] is A549, HepG2, LLC, and B16F10 tumor cells. Nature of the test: Tumor cell viability/proliferation by CCK-8 assay. As to conditions: 20 µM, 24 and 48 hours, CCK-8 (Figure 4). As to the method:
A549 (non-small cell lung cancer), HepG2 (hepatocellular carcinoma), LLC (Lewis lung carcinoma), and B16F10 (melanoma) tumor cells (cell density: 1 × 10^4 cells per well) were stimulated with test compound E at a concentration of 20 µM. After 24 and 48 hours of stimulation, the cells were lysed, and the effect of compound E on tumor cell viability was detected by CCK-8 assay.
In general terms: Tetrazolium dyes change colour on reduction, which living cells bring about.

For test [2], the system named is LLC (Lewis lung carcinoma) tumor cells. Nature of the test: Cytotoxic effect on tumor cells by microscopy and flow cytometry. As to conditions: 20 and 40 µM, 36 hours, flow cytometry (Figure 5). As to the method: LLC (Lewis lung carcinoma) tumor cells (cell density: 1 × 10^5 cells per well) were stimulated with test compound E at concentrations of 20 and 40 µM. Cell morphology was observed under a microscope at 36 hours post-stimulation, and after cell digestion, the cytotoxic effect of compound E on tumor cells was detected by flow cytometry.

The next test concerns LLC tumor cells. As to the kind of experiment: Subcutaneous LLC tumor model in mice, tumor volume and survival. As to conditions: mice s.c. 5 × 10^5 LLC cells, 15 mg/kg tail vein injection once every four days, four doses. As to the method: Mice (6- to 8-week-old male C57BL/6J mice) were subcutaneously inoculated with 5 × 10^5 LLC tumor cells. Starting from day 10 post-inoculation, compound E (15 mg/kg mouse body weight) was administered via tail vein injection once every four days for a total of four doses. Tumor growth was continuously observed, with tumor volume calculated as (length × width^2)/2, and mouse survival was monitored.

Test [3] relates to B16-F10 melanoma cells. Nature of the test: Subcutaneous B16F10 melanoma model in mice, tumor volume. As to conditions: mice s.c. 5 × 10^5 B16-F10 cells; 15 mg/kg tail vein injection once every four days, four doses, from day 10. As to the method:
Mice (6- to 8-week-old male C57BL/6J mice) were subcutaneously inoculated with 5 × 10^5 B16-F10 melanoma cells. Starting from day 10 post-inoculation, compound E (15 mg/kg mouse body weight) was administered via tail vein injection once every four days for a total of four doses. Tumor growth was continuously observed, with tumor volume calculated as (length × width^2)/2.

Test [4] relates to B16-F10 melanoma cells. Nature of the test: Experimental lung metastasis of B16F10 tumors in mice, in vivo imaging and isolated lungs. As to conditions: mice i.v. 5 × 10^4 B16-F10 cells; 10 mg/kg tail vein injection once every three days, three doses, from day 6 (Figures 8 and 9). How it is done: Mice (6- to 8-week-old male C57BL/6J mice) were injected via the tail vein with 5 × 10^4 B16-F10 melanoma cells. Starting from day 6 post-injection, compound E (10 mg/kg mouse body weight) was administered via tail vein injection once every three days for a total of three doses. On day 13 post-administration, lung tumor conditions were observed and quantitatively compared using a small animal in vivo imaging system. On day 15, the mice were euthanized, and the lungs were isolated to observe tumor conditions.

Molecules are shown by their SMILES.

For the compound `CN(C)CCN1C(=O)c2ccc(F)c3c(N4CCN(CCN5CCCC5)CC4)ccc(c23)C1=O`, the “nuclear export of hnRNPA2B1” value in the test with hnRNPA2B1 is listed as “significantly activated”. For the same compound, the “activation of downstream TBK1 and IRF3” value in the test on TBK1 and IRF3 is “significantly activated”. Also, in the test with IFN-β, the “type I interferon expression (IFN-β protein levels)” value is listed as “significantly activated”. The “proliferation of multiple tumor cell types (tumor cell viability)” value in test [1] is given as “significantly inhibited”. Besides, the “tumor cell apoptosis (cytotoxic effect)” value in test [2] was “significantly induced tumor cell apoptosis”. Further, the “LLC tumor proliferation (tumor volume)” value in the test on LLC tumor cells (from day 10 (Figure 6)) is given as “inhibited LLC tumor proliferation”. The “survival of tumor-bearing mice” value in the test on LLC tumor cells (from day 10 (Figure 7)) is given as “promoted the survival of tumor-bearing mice”. In the test with B16-F10 melanoma cells [3], the “B16F10 tumor proliferation (tumor volume)” value is “inhibited B16F10 tumor proliferation”. Further, the “experimental lung metastasis of B16F10 tumors” value with B16-F10 melanoma cells [4] is on record as “inhibited experimental lung metastasis of B16F10 tumors”.
